Measured affinities in a library of Ab-91 heavy chain variants

Source: Engelhart et al. 2022 (doi:10.1038/s41597-022-01779-4), MIT Lincoln Laboratory and A-Alpha Bio; data file from the FLAb repository.

Antigen: PDVDLGDISGINAS, a 14-residue peptide of the SARS-CoV-2 spike HR2 region.

The variants keep the light chain, the linker and the frameworks of Ab-91 (scFv order VL, a 15-residue (Gly4Ser)3 linker, VH).
VL: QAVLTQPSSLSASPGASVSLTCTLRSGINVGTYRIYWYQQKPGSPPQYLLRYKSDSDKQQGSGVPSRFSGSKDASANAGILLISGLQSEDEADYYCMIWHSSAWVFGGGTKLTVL
VH: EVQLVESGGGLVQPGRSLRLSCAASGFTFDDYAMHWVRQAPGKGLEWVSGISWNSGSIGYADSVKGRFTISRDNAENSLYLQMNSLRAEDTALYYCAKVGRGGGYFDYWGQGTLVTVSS

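The parent was found by panning a naive human phage display library on the peptide. Library AAYL51 holds single substitutions and randomly drawn double and triple substitutions in the CDRs. The assay is AlphaSeq: two haploid yeast populations carry antibody and antigen on their surface. The frequency of each diploid, read from paired DNA barcodes, reflects how well the two displayed proteins bind. Read counts were normalised to the haploid input and turned into Kd by a linear fit to BCL2-family pairs of known affinity, for each replicate. There are three technical replicates.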

Substitutions are numbered in sequence along the VH above, starting at 1 (not Kabat). The read-out is the apparent dissociation constant on a log10 scale (nM): the lower, the stronger. "ND" means that the variant was in the library but no mating with the target was seen in that replicate; the authors take this as a sign of poor binding, and no number exists. As a blank, each scFv also met three strains without target: over library AAYL51, 21% of these pairings were detected, typically at 4.54 and seldom below 3.26. Also given: how often the same scFv was detected with the empty control strains, with their mean in brackets.

changes,log10 Kd (nM) by replicate,control signals
S52Y/S63W/V64G,ND ND 2.62,1 of 9 (1.94)
F29P/Y32Q/Y105Q,2.18 ND ND,0 of 9
S57C/V64E/G104A,ND ND ND,2 of 9 (3.26)
S52E/Y60W/G104P,ND ND ND,0 of 9
S55D/D62Q/V64P,ND ND ND,1 of 9 (1.48)
M34L/S57Y/V99K,4.18 4.56 4.11,0 of 9
G104F/F106D/D107C,6.08 ND 5.06,4 of 9 (4.80)
Y32T/G100D/Y105F,6.33 4.65 6.20,7 of 9 (5.14)
T28N/Y60S,3.26 2.79 ND,0 of 9
D31E/G103P,1.15 1.52 0.70,1 of 9 (4.78)
Y60L/G102W/Y105F,ND ND ND,0 of 9
F29S/G56M/I58P,ND ND ND,0 of 9
D62M/V99N,4.09 4.71 5.23,7 of 9 (5.01)
F29E/D30K/G59D,4.98 ND ND,1 of 9 (5.65)
M34K/R101K,5.00 ND ND,1 of 9 (4.43)
F27S/T28M/N54H,4.44 5.21 3.81,4 of 9 (4.09)
D30A/H35L/V64I,4.57 4.54 ND,4 of 9 (4.37)
I51M/G56S/K65N,3.78 ND ND,0 of 9
T28Q/W53H/V99P,4.85 6.26 4.81,6 of 9 (4.92)
Y32H/N54E/V99P,ND ND ND,3 of 9 (4.09)
G103H,ND ND ND,3 of 9 (3.93)
N54H/R101H/F106Q,ND ND ND,0 of 9
D30Q/Y32N/F106Q,ND ND ND,0 of 9
S57L/G100N/Y108I,3.90 4.96 ND,1 of 9 (5.39)
S63R/F106S/Y108D,ND ND 3.44,1 of 9 (4.01)
G26E/I51V/D62Q,ND ND ND,0 of 9
D30H/G100V/F106V,2.93 2.95 2.81,8 of 9 (5.07)
I51T,3.88 4.00 ND,1 of 9 (4.08)
M34H/N54G/G103T,ND ND ND,2 of 9 (4.61)
M34D/D62A/K65H,ND 5.22 ND,1 of 9 (4.54)
A61E/S63D/G103Q,ND ND 3.91,0 of 9
D30G/I51T/N54I,ND ND 3.35,1 of 9 (4.22)
M34G/F106S/Y108G,ND ND ND,1 of 9 (4.61)
M34Q/S63T/R101K,ND ND ND,0 of 9
A61Q/G100W/Y105D,ND ND ND,1 of 9 (3.51)
G102R/Y105F,4.26 ND 4.95,6 of 9 (4.45)
Y32N/H35F/V64Y,ND ND ND,0 of 9
S57K/G59W/G102K,ND ND ND,0 of 9
G26V/F27K/D107P,4.97 4.46 6.02,6 of 9 (5.06)
T28Y/D31W/G59I,ND ND ND,0 of 9
G26R/G100C/Y108F,ND ND ND,1 of 9 (2.80)
T28P/K65C,1.71 1.93 1.36,7 of 9 (5.07)
G56Y/G59C/A61H,ND 4.97 ND,3 of 9 (5.22)
S57N/I58G/Y108A,2.92 ND 4.59,0 of 9
D30F/Y32N/V64W,4.52 4.44 6.26,8 of 9 (5.03)
I51N/S55Y/G100R,ND ND ND,0 of 9
D31Q/G100K/R101I,ND ND ND,0 of 9
F29R/G56N/G59P,4.67 ND 6.12,5 of 9 (4.67)
D30C/K65R/R101L,2.44 2.07 ND,0 of 9
Y32A/S63Q/D107W,ND ND ND,0 of 9
I51F/A61Y/Y105I,ND ND ND,0 of 9
S52N/G59D/Y108I,ND ND ND,1 of 9 (3.65)

The first 4 variants above that were never detected:

| changes | log10 Kd (nM) by replicate | control signals |
|---|---|---|
| S57C/V64E/G104A | ND ND ND | 2 of 9 (3.26) |
| S52E/Y60W/G104P | ND ND ND | 0 of 9 |
| S55D/D62Q/V64P | ND ND ND | 1 of 9 (1.48) |
| Y60L/G102W/Y105F | ND ND ND | 0 of 9 |